{"source": "paper PMC10266688", "about": "(PLOS ONE, 2023)", "key": {"[1]": {"assay": "Repeat dosing toxicity study: hematologic parameters", "settings": "female CD1 mice, Up284 20 mg/kg, Bortezomib 1 mg/kg"}, "[2]": {"settings": "mouse, in vivo"}}, "note": "Several values for one entry are separate records, joined by “and”; a condition that tells them apart may be missing. Equal values may be shown once. Read-outs that look alike come from different tables or passages of the source."}
{"smiles": "N#Cc1ccc(/C=C2/C(=O)/C(=C/c3ccc(C#N)cc3)C23CCNCC3)cc1", "note": "[Up284]", "values": [{"measurement": "MPV", "setting": "[1]; group Mean", "value": 5.40, "unit": "fL"}, {"measurement": "WBC", "setting": "[1]; group Mean", "value": "3.60 10^9/L"}, {"measurement": "MPV", "setting": "[1]; individual mice", "value": 5.40, "unit": "fL"}, {"measurement": "WBC", "setting": "[1]; individual mice", "value": "3.80 10^9/L and 2.20 10^9/L"}, {"measurement": "MID, %", "setting": "[2]; ip, 40 mg/kg", "value": 5.43, "unit": "%"}, {"measurement": "WBC", "setting": "[2]; po, 200 mg/kg", "value": "3.40 10^9/L"}]}
